Reference: patent US20170088532A1, “INHIBITORS OF LPXC” (The Regents of the University of California, priority 2013, published 2017)

Chains of the proteins cited; added tags and fusions are not shown.
UniProt P0A725, whole entry: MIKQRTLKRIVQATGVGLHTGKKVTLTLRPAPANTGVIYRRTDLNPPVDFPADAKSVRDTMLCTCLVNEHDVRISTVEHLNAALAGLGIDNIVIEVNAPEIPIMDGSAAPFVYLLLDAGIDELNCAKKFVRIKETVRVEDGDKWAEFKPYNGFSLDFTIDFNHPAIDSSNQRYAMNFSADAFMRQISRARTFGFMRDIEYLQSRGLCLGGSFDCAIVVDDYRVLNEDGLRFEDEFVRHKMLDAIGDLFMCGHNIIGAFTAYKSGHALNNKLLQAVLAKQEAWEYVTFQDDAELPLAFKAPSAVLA

These molecules were tested against E. Coli LpxC (Escherichia coli, UniProt P0A725) (assay: Inhibition of LpxC from E. coli). Details: Table 2, values without parentheses.
Excerpt: Methods for assessing inhibition of LpxC are known in the art.

Point of comparison: COC(=O)c1ccc(-c2ccc(NCc3oc(CO)cc(=O)c3O)cc2)cc1, IC50 1400 nM. Against it:
- O=C(O)c1ccc(-c2ccc(NCc3oc(CO)cc(=O)c3O)cc2)cc1 — 48-fold higher, 67000 nM
- CS(=O)(=O)Cc1cc(=O)c(O)c(CNc2ccc(-c3ccc(N4CCOCC4)cc3)cc2)o1 — lower, < 100 nM
- CNC(=O)c1ccc(-c2ccc(NCc3oc(CS(C)(=O)=O)cc(=O)c3O)cc2)cc1 — lower, < 100 nM
- CN(C)c1ccc(-c2ccc(NCc3oc(CO)cc(=O)c3O)cc2)cc1 — 1.8-fold higher, 2500 nM
- COC(=O)c1ccc(-c2ccc(NCc3oc(CS(C)(=O)=O)cc(=O)c3O)cc2)cc1 — 11-fold lower, 130 nM
- COc1ccc(-c2ccc(NCc3oc(CO)cc(=O)c3O)cc2)cc1F — 4.4-fold higher, 6100 nM
